Reference: patent US10610591B2, “Light responsive quantum dot drug delivery system” (Nanoco Technologies Ltd., priority 2017, dated 2020)

Test system: HER2 negative 4T1 cells
Assay: binding of antibody conjugated QD to control HER2 negative cells
Type: cell-based
Protocol: In Eppendorf tubes, 1 mg carboxyl-functionalised, water-soluble QDs were mixed with 100 μl MES activation buffer (i.e. 25 μl of 40 mg/ml stock into 100 μl MES). The MES buffer was prepared as a 25 mM solution (2-(N-morpholino) ethanesulfonic acid hemisodium salt (MES), Sigma Aldrich) in deionized (DI) water, pH 4.5. To this was added 33 μl of a fresh EDC solution (30 mg/ml stock in DI water, 1-ethyl-3-(3-dimethylaminopropyl) carbodiimide hydrochloride (EDC), Fisher Scientific) and the solution was mixed. To this was added 4 μl of fresh sulfo-NHS (100 mg/ml stock, ThermoFisher Scientific, in DI water) and the solution was mixed. NanoSep 300K filters (PALL NanoSep 300K Omega ultrafilters) were pre-wetted in 100 MES. The MES/EDC/Sulfo-NHS/QD solution was added to the NanoSep 300K filter and topped up 500 μl with MES. The filter was centrifuged at 5000 rpm/15 min. The retained dots were re-dispersed in 50 μl activation buffer and transferred to an Eppendorf tube containing 10 μl of trastuzumab (Herceptin®, 100 mg/ml stock in a 25 mM solution of HEPES buffer, pH 8.5)+40 μl HEPES, pH 8.5. The solution was mixed well and incubated at RT overnight (around 16-18 hours). The solution was quenched with 16 μl of 6-amino caproic acid (6AC) (19.7 mg/100 mM). […]

Q: Which “binding to control HER2 negative cells” value does the source give for “traztuzumab conjugated QD: carboxyl-functionalised water-soluble cadmium free QD covalently conjugated with trastuzumab (Herceptin®) by EDC/sulfo-NHS” here?
A: without binding
